Results published in patent US20150273077A1, “PYRROLOBENZODIAZEPINE-ANTI-HER2 ANTIBODY CONJUGATES” (priority 2012, published 2015).

System: BT-474 xenograft
Assay: In vivo anti-tumour activity of ADCs in BT-474 xenograft model
Details: NCr nu/nu mice, single IV dose, ADCs 0.3 and 1 mg/kg, Trastuzumab 1.0 mg/kg, result in words
Protocol: The antibody was conjugated to A, E, D, or B warhead-linkers and tested in the BT-474 xenograft model. At the same time, to investigate any potential anti-tumor activity observed with Trastuzumab alone, the antibody without PBD was tested in the same assay.
• Set up CR female NCr nu/nu mice with I xl BT474-SPN tumor cells in 0% Matrigel sc in flank. • Cell Injection Volume is 0.1 mL/mouse. • Age at Start Date: 8 to 12 weeks. • Perform a pair match when tumors reach an average size of 100-150 mm^3 and begin treatment. • Body Weight: qd×5 then bi-wk to end • Caliper Measurement: bi-wk to end • Report any adverse reactions or death immediately. • Any individual animal with a single observation of >30% body weight loss or three consecutive measurements of >25% body weight loss will be euthanized. • Any group with two measurements of mean body weight loss of >20% or >10% mortality will stop dosing. The group is not euthanized and recovery is allowed. […]
Exceptions to non-treatment body weight % recovery may be allowed on a case-by-case basis. • Endpoint TGD. Animals are to be monitored individually. […]
For the calculation of group mean tumor volumes the following rule was applied: when an animal exited the study due to tumor size, the final tumor volume recorded for the animal was included with the data used to calculate the mean volume at subsequent time points. […]

## Trastuzumab
  anti-tumor activity (mean tumour volume): did not show significant anti-tumor activity
